From ChEMBL document CHEMBL1138512, “A class of 2,4-bisanilinopyrimidine Aurora A inhibitors with unusually high selectivity against Aurora B” (J Med Chem, 2009) come the findings set out here.

Molecules are shown by their SMILES.

The assay is described as follows: Selectivity ratio of IC50 for Aurora B to IC50 for Aurora A.

For the compound `O=C(Nc1ccccc1Cl)c1ccc(Nc2nc(Nc3ccc(O)cc3)ncc2F)cc1`, the Ratio IC50 came out at 190 µM.
